The source of these data is ChEMBL document CHEMBL4425156, “The evolution of P2X7 antagonists with a focus on CNS indications” (Bioorg Med Chem Lett, 2016).

Protein sequences, listed by entry. Tags and fused reporters are not part of them. Lines headed by an entry give the natural chain unless they say otherwise; changes in a name come on top.
UniProt Q99572: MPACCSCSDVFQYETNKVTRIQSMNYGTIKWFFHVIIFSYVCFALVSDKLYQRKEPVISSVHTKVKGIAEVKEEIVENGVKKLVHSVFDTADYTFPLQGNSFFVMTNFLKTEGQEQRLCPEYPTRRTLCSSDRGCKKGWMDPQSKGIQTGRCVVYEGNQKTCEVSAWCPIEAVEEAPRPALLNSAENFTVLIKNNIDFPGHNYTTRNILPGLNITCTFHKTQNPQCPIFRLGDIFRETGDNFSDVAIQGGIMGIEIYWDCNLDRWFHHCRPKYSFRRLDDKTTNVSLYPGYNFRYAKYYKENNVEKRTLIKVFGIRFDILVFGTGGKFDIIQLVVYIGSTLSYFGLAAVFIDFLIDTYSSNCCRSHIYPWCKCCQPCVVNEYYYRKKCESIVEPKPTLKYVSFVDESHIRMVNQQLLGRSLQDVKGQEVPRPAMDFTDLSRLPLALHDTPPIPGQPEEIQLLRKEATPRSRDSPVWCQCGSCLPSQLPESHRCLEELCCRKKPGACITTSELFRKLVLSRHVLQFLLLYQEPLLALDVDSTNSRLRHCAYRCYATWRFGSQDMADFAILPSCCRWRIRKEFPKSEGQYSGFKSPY

In test [1] the target is T1, P2X purinoceptor 7 (Rattus norvegicus, UniProt Q64663).
T1 sequence (Q64663 whole entry): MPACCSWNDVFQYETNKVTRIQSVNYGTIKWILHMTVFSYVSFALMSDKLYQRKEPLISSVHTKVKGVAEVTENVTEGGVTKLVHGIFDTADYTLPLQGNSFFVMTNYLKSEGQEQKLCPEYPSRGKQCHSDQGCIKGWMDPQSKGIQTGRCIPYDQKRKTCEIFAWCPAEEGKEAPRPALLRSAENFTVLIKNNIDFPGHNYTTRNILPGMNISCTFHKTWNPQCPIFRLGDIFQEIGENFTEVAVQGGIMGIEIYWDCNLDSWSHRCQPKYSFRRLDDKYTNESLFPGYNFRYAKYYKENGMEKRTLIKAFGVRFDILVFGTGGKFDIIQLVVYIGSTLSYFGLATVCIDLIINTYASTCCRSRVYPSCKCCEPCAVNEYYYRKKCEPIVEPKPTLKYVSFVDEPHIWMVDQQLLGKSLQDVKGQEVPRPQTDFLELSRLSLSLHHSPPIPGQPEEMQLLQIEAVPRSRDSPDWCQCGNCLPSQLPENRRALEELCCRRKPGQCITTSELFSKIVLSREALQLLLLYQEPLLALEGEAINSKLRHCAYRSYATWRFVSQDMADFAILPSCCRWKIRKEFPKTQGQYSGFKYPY
The test is described as follows: Antagonist activity at rat P2X7 receptor expressed in 1321N1 cells assessed as inhibition of BzATP-induced calcium mobilization incubated for 30 mins measured after 180 seconds by calcium-4 dye based FLIPR assay. The format is cell-based. (In general: Calcium assays in cells follow changes in intracellular calcium, usually with a dye or a luminescent sensor.)

Test [2] concerns the target P2X purinoceptor 7 (Homo sapiens, UniProt Q99572). The test is described as follows: Antagonist activity at P2X7 receptor in human whole blood assessed as inhibition of BzATP-induced IL-1beta release preincubated for 30 mins followed by stimulation with BzATP for […] by ELISA. In kind it is tissue-based. On the technique in general: In an ELISA, binding on a coated surface is turned into a signal by an enzyme label.

What is called IC50 is the concentration needed to halve the response being measured. Consider `Cc1nc2c(c(-c3ccn[nH]3)n1)C[C@@H](C)N(C(=O)c1ccc(Cl)cc1F)C2`, for which, at P2X purinoceptor 7 [1], the IC50 came out at 17 nM. As to `Cc1nc2c(c(-c3ccccc3)n1)CCN(C(=O)c1cccc(C(F)(F)F)c1Cl)C2`, the IC50 on P2X purinoceptor 7 [1] was found to be 4790 nM.

What is called EC50 is the concentration that produces a half-maximal response. With `Cc1nc2c(c(-c3ccn[nH]3)n1)C[C@@H](C)N(C(=O)c1cccc(C(F)(F)F)c1Cl)C2`, the EC50 at P2X purinoceptor 7 [2] came out at 158 nM.
